Reference: publication PMC9666555, “Genuine selective caspase-2 inhibition with new irreversible small peptidomimetics” (Cell Death & Disease, 2022)

Experiments:
[1] = biological target: T1, human active recombinant Caspase-3 (Homo sapiens, UniProt P42574); assay: In vitro caspase activity and inhibition assay (IC50), Caspase-3; type: biochemical
T1 sequence (P42574 29-175 limits assumed): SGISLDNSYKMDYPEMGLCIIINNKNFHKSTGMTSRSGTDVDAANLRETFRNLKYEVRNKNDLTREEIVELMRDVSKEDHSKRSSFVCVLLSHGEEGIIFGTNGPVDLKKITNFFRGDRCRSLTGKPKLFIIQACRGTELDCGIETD
T1 sequence (P42574 176-277 limits assumed): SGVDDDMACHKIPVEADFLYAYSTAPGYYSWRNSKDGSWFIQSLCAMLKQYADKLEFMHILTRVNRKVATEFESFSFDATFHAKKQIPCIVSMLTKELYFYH

recombinant human Casp3 = biological target: T2, recombinant human Casp3 (Homo sapiens, UniProt P42574); assay: Enzyme mechanistic studies (Ki, k3, k3/KI), Caspase-3; type: biochemical; details: reversible competitive inhibitors, Lineweaver-Burk; read-out: Enzyme assays Casp3 Ki
T2 sequence (P42574 29-175 limits assumed): T1 sequence (P42574 29-175 limits assumed)
T2 sequence (P42574 176-277 limits assumed): T1 sequence (P42574 176-277 limits assumed)
Description: For reversible inhibitors, the mechanisms of inhibition were determined by varying substrate and inhibitor concentrations and using Lineweaver−Burk representations to determine the inhibition constants Ki of competitive inhibitors (Ki = [E][I]/[EI]). For suicide inhibitors, inactivation can be represented by the minimum kinetic scheme (Eq. 2), where E and I are the free forms of enzyme and inhibitor, E * I a kinetic chimera of the Michaelis complex and E − I the covalent complex (inactivated enzyme).2 E+I⇄KIE*I→k3E−I
KI and k3 are the kinetic constants characterizing the inactivation process and the k3/KI ratio is an index of the inhibitory potency. The first-order rate constant, k3, and the apparent dissociation constant, KI, were determined for Caspase-2 and -3 using the progress curve method. Briefly, the enzyme activities were measured continuously for 120 min. To determine the kinetic parameters, progress curves were obtained at several inhibition concentrations using fixed substrate concentration. […] The ratio k3/KI was obtained by fitting the experimental data to the equations (F.U., fluorescence unit):3 F.U.=∫0tvidt+F.U0−vo×e^−π×t/π+F.U.0 4 π=k3×[I]^′/KI+[I]^′ 5 [I]^′=[I]/1+S/KM […]

SMILES: CC(=O)N[C@@H](CC(=O)O)C(=O)N[C@@H](CCC(=O)O)C(=O)N[C@H](C(=O)N[C@H](C=O)CC(=O)O)C(C)C [DEVD-CHO, Ac-DEVD-CHO]
- IC50 [1]: 1 nM
- Ki (recombinant human Casp3): 0.2 nM
